The term IC50 denotes the concentration needed to halve the response being measured. As a reminder, the Kd is a measure of binding affinity in units of concentration.

By UniProt entry, the sequences of proteins in these tests, tags left out. Where a name states a change or a piece, a line headed by the entry shows the natural chain unless it says otherwise.
UniProt Q06830: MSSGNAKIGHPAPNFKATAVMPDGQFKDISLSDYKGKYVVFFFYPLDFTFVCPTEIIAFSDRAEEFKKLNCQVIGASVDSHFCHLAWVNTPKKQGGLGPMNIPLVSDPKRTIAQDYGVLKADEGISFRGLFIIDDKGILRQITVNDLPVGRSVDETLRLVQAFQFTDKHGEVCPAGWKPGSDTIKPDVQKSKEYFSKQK

Experiment [1] concerns the target T1, PRDX1 (Homo sapiens, UniProt Q06830). Briefly: Trx-TrxR-NADPH coupling peroxiredoxin activity assay, PRDX1. In kind it is biochemical.
Experiment [2] addresses recombinant wild type PRDX1 (Homo sapiens, UniProt Q06830). Briefly: Surface plasmon resonance (SPR) assay. The conditions noted are these: read-out: binding affinity KD with PRDX1 protein, Biacore T200, kinetic analysis. Background: In SPR one partner is held on a chip, and binding of the other changes the refractive index at the surface.
Experiment [3] deals with T1, PRDX1. Briefly: Determination of Kinact and Ki for inhibition of PRDX1's peroxidase activity. The class given is biochemical.

`COC(=O)[C@H](C)NC(=O)N[C@]1(C)CC[C@]2(C)CC[C@]3(C)C4=CC=C5C(=CC(=O)C(O)=C5C)[C@]4(C)CC[C@@]3(C)[C@@H]2C1` [19-048, Methyl (((2R,4aS,6aS,12bR,14aS,14bR)-10-hydroxy-2,4a,6a,9,12b,14a-hexamethyl-11-oxo-1,2,3,4,4a,5,6,6a,11,12b,13,14,14a,14b-tetradecahydropicen-2-yl)carbamoyl)-L-alaninate]: in experiment [1] (PRDX1 vs PRDX2~PRDX6 peroxidase activity, as compared to Celastrol), the “selectivity for PRDX1 among the human PRDX protein family” value was “approximately 500 fold”. Further, the IC50 in experiment [1] (read-out: IC50 against the peroxidase activity of PRDX1, recombinant PRDX1, 1.5 h incubation, mean ± SEM, triplicate) was found to be 210 nM. For the same molecule, the Kd in experiment [2] was 250 nM. Besides, the Ki in experiment [3] (covalent reactivity (Kinact/Ki determination)) worked out at 1880 nM. Besides, the Kinact in experiment [3] (incubation 0-100 min) came out at 0.13 ± 0.094 min⁻¹.

The values are drawn from paper PMC9895061 (Signal Transduction and Targeted Therapy, 2023).
